Measurements: PMC11662004 (Communications Chemistry, 2024)

Target: T1, NgTet1 (Naegleria gruberi, UniProt D2W6T1)
T1 construct: His6-tagged full-length Naegleria gruberi NgTet1 (321 a. a.) protein with a thrombin cleavage site; made in house; host or cells: E. coli BL21(DE3)
T1 sequence (D2W6T1 1-321): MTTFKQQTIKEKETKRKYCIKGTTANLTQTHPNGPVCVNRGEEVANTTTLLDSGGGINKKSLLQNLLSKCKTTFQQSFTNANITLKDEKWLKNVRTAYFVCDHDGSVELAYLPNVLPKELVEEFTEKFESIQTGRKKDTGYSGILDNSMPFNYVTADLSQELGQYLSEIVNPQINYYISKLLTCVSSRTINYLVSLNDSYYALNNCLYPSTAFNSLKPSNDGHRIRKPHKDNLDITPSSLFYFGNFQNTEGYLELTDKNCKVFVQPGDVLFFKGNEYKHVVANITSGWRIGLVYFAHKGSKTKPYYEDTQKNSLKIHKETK
Type: biochemical
Conditions: 20 µM 5mC DNA vs no DNA
Experimental: Double-stranded 12 bp DNA oligomers were added at a final concentration of 20 µM. […]
Double-stranded DNA oligomers were added at a final concentration of 20 µM. […]
All ^1H NMR spectra were recorded at 25 °C using D2O as a reference for internal deuterium lock on a Bruker Avance III 700 MHz equipped with an inverse TCI cryoprobe in 3 or 5 mm diameter tubes with a total sample volume of 160 or 565 μL, respectively. The water signal was reduced using Perfect Echo excitation sculpting suppression. Chemical shifts are reported in ppm relative to D2O (δH = 4.70 ppm).
Spectrometer settings were determined using a control sample containing all reaction components excluding enzyme. TET enzyme was added to an identical sample, and the resulting assay mixture was transferred to an NMR tube before deposition into the instrument. […] Spectrum recordings were carried out consecutively without delay. Data were processed using automated routines on MestReNova v14.2.0; signals of interest were integrated with absolute intensity scaling. ^1H NMR time courses reported in figures are representative results from two or three independent replicates.

O=C(O)CCC(=O)C(=O)O [2OG, 2-oxoglutarate]
enhancement of maximum 2OG decarboxylation rate on substrate saturation: 3 fold
increase of apparent catalytic efficiency on substrate saturation: 5 fold
